PubChem BioAssay AID602363 (Broad Institute, 2012)
Screen size: about 350,000 compounds; about 450 (0.13%) were called active. What follows is part of a selection rich in actives, with near analogues and random picks from the rest. Unmarked numbers belong to inactive results.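 Rule for the calls: active = replicate mean at a twofold rise or more (about +100% in these data); inactive = the rest.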

Assay: modulators of yeast start codon fidelity, primary screen, whole organism, S. cerevisiae, single point, plate reader (AID 602363);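 note: firefly luciferase made from a UUG start codon reports start codon fidelity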
Conditions: S. cerevisiae UUG-firefly luciferase reporter, luminescence/redox ratio; at 18.7 µM; stronger effect = higher value
Work on `COc1cccc(S(=O)(=O)N[C@@H]2CC[C@@H](CCNC(=O)Cc3ccncc3)O[C@H]2CO)c1` yielded an activity score of 0.154%.
`C[C@@H]1CN([C@@H](C)CO)C(=O)c2cc(-c3cccnc3)cnc2O[C@@H]1CN(C)C(=O)C1CC1` gave an activity score of -5.34%.
`O=C(C[C@@H]1C[C@@H]2c3cc(NC(=O)Nc4ccc(C(F)(F)F)cc4)ccc3O[C@@H]2[C@@H](CO)O1)NCCc1ccccc1` showed an activity score of -18.2%.
Compound `C[C@@H]1CCCCO[C@H](CN(C)S(=O)(=O)c2cccs2)[C@@H](C)CN([C@@H](C)CO)C(=O)c2cc(NC(=O)NC3CCCCC3)ccc2O1` has an activity score of -8.53%.
Work on `CO[C@@H]1CN(C)C(=O)c2cc(NC(=O)C3CC3)ccc2OC[C@@H](C)N(C(=O)c2ccncc2)C[C@H]1C` yielded an activity score of 0.045%.
`CN(C)C(=O)c1ccc(-c2ccc([C@@H]3[C@@H](CO)N4CCCCN(Cc5cncnc5)C[C@@H]34)cc2)cc1` gave an activity score of -3.82%.
For `O=C(C1CCC1)N1C[C@@H]2[C@H](c3ccccc31)[C@H](CO)N2C(=O)c1ccccc1`, the activity score was 53.9%.
`O=C(c1cccnc1)N1C[C@H]2[C@@H](c3ccccc31)[C@H](CO)N2C(=O)C1CCCCC1` showed an activity score of -1.65%.
`O=C(c1ccccc1F)N1C[C@@H]2[C@H](c3ccccc31)[C@H](CO)N2C(=O)C1CCCC1` showed an activity score of 6.27%.
For `O=C(c1cccnc1)N1C[C@H]2[C@@H](c3ccccc31)[C@H](CO)N2C(=O)C1CC1`, the activity score was 101% (active).
For `O=C(C1CCC1)N1C[C@H]2[C@@H](c3ccccc31)[C@@H](CO)N2C(=O)c1ccccc1F`, the activity score was 115% (active).
`O=C(c1cccnc1)N1C[C@@H]2[C@H](c3ccccc31)[C@@H](CO)N2C(=O)Nc1ccc(F)cc1` gave an activity score of 52.2%.
Compound `COc1ccccc1-c1cn(CC[C@H]2CC[C@H](NC(=O)C3CCOCC3)[C@@H](CO)O2)nn1` has an activity score of -2.48%.
`C[C@@H]1CN([C@H](C)CO)S(=O)(=O)c2ccc(-c3ccccc3)cc2O[C@@H]1CN(C)C(=O)C1CC1` gave an activity score of 1.27%.
With `Cn1cnc(CCNC(=O)C[C@H]2CC[C@H]3[C@@H](COC[C@H](O)CN3C(=O)C3CCCC3)O2)c1` the activity score was 2.13%.
In the case of `C[C@@H]1CCCCO[C@@H](CN(C)C(=O)Nc2ccc(F)cc2)[C@H](C)CN([C@@H](C)CO)C(=O)c2cc(NS(=O)(=O)c3ccccc3)ccc2O1`, the activity score is reported as -2.99%.
With `CCCC(=O)Nc1ccc2c(c1)C(=O)N(C)[C@H]1CC[C@@H](CC(=O)NCc3ccccc3)O[C@@H]1CO2` the activity score was 6.07%.
Compound `COc1cccc(S(=O)(=O)N2C[C@@H](O)COC[C@@H]3O[C@H](CC(=O)N4CCN(C)CC4)CC[C@H]32)c1` has an activity score of 25.3%.
With `O=C(C1CCC1)N1C[C@H]2[C@@H](c3ccccc31)[C@H](CO)N2C(=O)Nc1cccc(F)c1` the activity score was 4.33%.
`CN1c2ccc(C#Cc3cccnc3)cc2[C@H]2[C@H](CCN2S(=O)(=O)c2ccccc2)[C@@H]1CO` gave an activity score of -20.3%.
In the case of `C[C@H]1CN([C@@H](C)CO)C(=O)c2cc(NC(=O)Cn3cnnn3)ccc2O[C@@H]1CN(C)CC1CCCCC1`, the activity score is reported as -6.95%.
With `C[C@H]1CN([C@@H](C)CO)C(=O)c2cc(Br)cnc2O[C@@H]1CN(C)C(=O)c1ccccc1F` the activity score was 1.14%.
`C[C@@H]1CCCCO[C@H](CN(C)Cc2ccc3c(c2)OCO3)[C@H](C)CN([C@@H](C)CO)C(=O)c2cc(NS(=O)(=O)c3cn(C)cn3)ccc2O1` gave an activity score of 0.464%.
Work on `C[C@H]1CCCCO[C@H](CN(C)CC2CCCCC2)[C@@H](C)CN([C@@H](C)CO)C(=O)c2cc(NS(=O)(=O)c3ccc(Cl)cc3)ccc2O1` yielded an activity score of 19.2%.
Compound `Cc1noc(C)c1S(=O)(=O)Nc1ccc2c(c1)C(=O)N([C@@H](C)CO)C[C@@H](C)[C@@H](CN(C)S(=O)(=O)c1ccccc1)O2` has an activity score of -1.76%.
Compound `C[C@H]1CN([C@@H](C)CO)C(=O)c2cccc(NC(=O)C3CC3)c2O[C@@H]1CN(C)S(=O)(=O)c1ccc(F)cc1` has an activity score of -5.43%.
In the case of `CN(C)CC(=O)Nc1ccc2c(c1)[C@@H]1C[C@H](CC(=O)NCc3ccc(Cl)cc3)O[C@@H](CO)[C@@H]1O2`, the activity score is reported as 26.4%.
In the case of `COCC(=O)Nc1ccc2c(c1)C(=O)N(C)[C@@H]1CC[C@H](CC(=O)NCC3CCCCC3)O[C@H]1CO2`, the activity score is reported as -1.78%.
Work on `CNC(=O)C[C@@H]1CC[C@@H]2[C@@H](COc3ccc(NC(=O)Cc4cccs4)cc3C(=O)N2C)O1` yielded an activity score of 3.32%.
`CC(C)C#Cc1ccc2c(c1)O[C@@H](CN(C)C(=O)C1CC1)[C@H](C)CN([C@H](C)CO)S2(=O)=O` showed an activity score of 1.46%.
Compound `O=S(=O)(Cc1ccccc1)N1CCCCN2[C@H](CO)[C@@H](c3ccc(-c4cncnc4)cc3)[C@H]2C1` has an activity score of -10.2%.
In the case of `COc1ccc(NC(=O)N(C)C[C@@H]2OCCCC[C@H](C)Oc3ccc(NS(=O)(=O)c4cccs4)cc3C(=O)N([C@@H](C)CO)C[C@@H]2C)cc1`, the activity score is reported as -14.6%.
`C[C@H]1CN([C@@H](C)CO)C(=O)c2cccc(NS(C)(=O)=O)c2O[C@@H]1CN(C)C(=O)Nc1ccc(F)cc1` showed an activity score of -0.709%.
Compound `COCC(=O)N(C)C[C@H]1Oc2ncc(-c3cccc(OC)c3)cc2C(=O)N([C@H](C)CO)C[C@H]1C` has an activity score of 11.3%.
Compound `CO[C@H]1CN(C)C(=O)c2ccc(NS(=O)(=O)c3cn(C)cn3)cc2OC[C@@H](C)N(C)C[C@@H]1C` has an activity score of -8.25%.
For `C[C@@H]1CN([C@H](C)CO)C(=O)Cc2cc(NC(=O)CCCN(C)C)ccc2O[C@H]1CN(C)S(=O)(=O)c1cccs1`, the activity score was 4.48%.
`CCC(=O)N1[C@@H](CO)[C@@H]2c3ccccc3N(C(=O)c3cnccn3)C[C@@H]21` gave an activity score of -8.18%.
In the case of `O=C(N[C@H]1CC[C@@H](CCNS(=O)(=O)Cc2ccccc2)O[C@H]1CO)c1ccccc1F`, the activity score is reported as 170% (active).
In the case of `O=C(N[C@@H]1CC[C@@H](CCNS(=O)(=O)Cc2ccccc2)O[C@@H]1CO)c1ccccc1F`, the activity score is reported as -4.32%.
`CC(C)NC(=O)N[C@@H]1CC[C@@H](CCNS(=O)(=O)Cc2ccccc2)O[C@@H]1CO` gave an activity score of -4.26%.
`C[C@@H]1CCCCO[C@H](CN(C)C(=O)Cc2ccccc2)[C@@H](C)CN([C@@H](C)CO)C(=O)c2cc(NC(=O)c3ccccc3)ccc2O1` showed an activity score of 0.371%.
With `COc1ccc(CCN2C(=O)[C@@]3(Cc4ccccc42)c2ccccc2C(=O)N(Cc2ccccc2C(F)(F)F)[C@H]3c2ccc(CO)cc2)cc1` the activity score was 153% (active).
`CC(C)N1C(=O)[C@@]2(Cc3ccccc31)c1ccccc1C(=O)N(C1CCCCC1)[C@H]2c1ccc(CO)cc1` showed an activity score of 69%.
For `COCCCNC(=O)[C@@]1(C)c2ccccc2C(=O)N(Cc2ccc(OC(F)(F)F)cc2)[C@H]1c1ccc(CO)cc1`, the activity score was 2.89%.
Work on `COc1ccccc1NC(=O)N(C)C[C@@H]1Oc2ncc(Br)cc2C(=O)N([C@@H](C)CO)C[C@@H]1C` yielded an activity score of 19.9%.
With `CCOC(=O)C(=CNc1cccc(C)n1)C(=O)OCC` the activity score was -12%.
In the case of `CCOC(=O)C(=Cc1ccccc1)C(=O)c1ccccc1`, the activity score is reported as -13%.
In the case of `CCOC(=O)C(=Cc1ccccc1OC)C(=O)OCC`, the activity score is reported as 448% (active).
Compound `COc1ccc(-c2cnc3c(c2)C(=O)N([C@@H](C)CO)C[C@@H](C)[C@H](CN(C)C)O3)cc1` has an activity score of -4.93%.
For `N#Cc1cccc(-c2ccc3c(c2)[C@H]2[C@H](CCN2S(=O)(=O)c2ccc(F)cc2)[C@@H](CO)N3)c1`, the activity score was -15.3%.
`C[C@H]1CN([C@@H](C)CO)C(=O)Cc2cc(NC(=O)Nc3ccccc3)ccc2O[C@H]1CN(C)S(=O)(=O)c1cn(C)cn1` showed an activity score of 2.53%.
Compound `C[C@H](CO)N1C[C@H](C)[C@@H](CN(C)Cc2cccnc2)Oc2cc(C#CC3CC3)ccc2S1(=O)=O` has an activity score of 8.44%.
`COc1cccc(C(=O)Nc2ccc3c(c2)OC[C@H](C)N(C(C)=O)C[C@@H](C)[C@@H](OC)CN(C)C3=O)c1` gave an activity score of 43.4%.
`C/C=C/c1ccc2c(c1)O[C@@H](CN(C)C(=O)Cc1ccccc1)[C@H](C)CN([C@@H](C)CO)S2(=O)=O` gave an activity score of 58.8%.
Work on `CC(C)NC(=O)N(C)C[C@H]1Oc2ccc(NC(=O)CCC(F)(F)F)cc2CC(=O)N([C@@H](C)CO)C[C@@H]1C` yielded an activity score of -4.49%.
For `CCCC(=O)Nc1ccc2c(c1)C(=O)N(C)[C@H]1CC[C@@H](CC(=O)NCC(F)(F)F)O[C@@H]1CO2`, the activity score was -2.34%.
`CO[C@@H]1CN(C)C(=O)c2cc(NC(=O)C3CCCC3)ccc2OC[C@H](C)N(C)C[C@@H]1C` showed an activity score of 3.06%.
With `Cc1noc(C)c1NC(=O)Nc1ccc2c(c1)CC(=O)N([C@@H](C)CO)C[C@@H](C)[C@@H](CN(C)C(=O)NC(C)C)O2` the activity score was -0.961%.
Work on `C[C@H](O)C#Cc1cnc2c(c1)C(=O)N([C@H](C)CO)C[C@H](C)[C@H](CN(C)C(=O)c1ccc(F)cc1)O2` yielded an activity score of 9.52%.
For `CC(C)NC(=O)N(C)C[C@@H]1Oc2c(cccc2N(C)C)C(=O)N([C@@H](C)CO)C[C@H]1C`, the activity score was -11.2%.
`C[C@H]1CN([C@@H](C)CO)C(=O)c2cc(NS(=O)(=O)c3cccs3)ccc2O[C@@H]1CN(C)C(=O)Nc1ccccc1` showed an activity score of -9.65%.
`C[C@@H]1CN([C@@H](C)CO)S(=O)(=O)c2ccc(C#CCN(C)C)cc2O[C@@H]1CN(C)CC1CC1` showed an activity score of 33.3%.
Work on `C[C@@H]1CCCCO[C@@H](CN(C)Cc2ccc(C(=O)O)cc2)[C@H](C)CN([C@@H](C)CO)C(=O)c2cc(NC(=O)C3CCCCC3)ccc2O1` yielded an activity score of 3.06%.
